Measurements: ChEMBL document CHEMBL3046886, “Action of benzimidazolo-piperazinyl derivatives on dopamine receptors” (Med Chem Res, 2013)

Species: Rattus norvegicus
Test: Rattus norvegicus (rat)io of Ki for low affinity antagonist binding site of D2 receptor to high affinity agonist binding site of D2 receptor in Rattus norvegicus (rat) striatal membrane
Details: Striatum

Ratio Ki: 11
SMILES: Oc1nc2c(N3CCN(Cc4ccccc4)CC3)cccc2[nH]1
